Measurements reported in PubChem BioAssay (NCI).
“And” between values parts separate entries of the source, which are not always exact repeats. Identical values can stand only once. The entries are a selection whose mix differs from that of the whole data set.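 The test compound was applied at a single concentration to cells in 96-well plates for 48 hours, and percent growth was recorded.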 The source made the active and inactive calls. How the source made its calls: active means growth percent below 10; inactive means the rest.

What was measured:
Assay in all cases: NCI-60 one-dose screen, 48 h (100 = growth as untreated, 0 = no growth, -100 = all killed)
Settings in all cases: 10 µM
DU-145 prostate = system: DU-145 prostate
K-562 leukemia = system: K-562 leukemia
MALME-3M melanoma = system: MALME-3M melanoma
MDA-MB-231 breast = system: MDA-MB-231 breast
RXF 393 renal = system: RXF 393 renal
SF-268 CNS = system: SF-268 CNS
SF-295 CNS = system: SF-295 CNS
SF-539 CNS = system: SF-539 CNS
UACC-257 melanoma = system: UACC-257 melanoma
M14 melanoma = system: M14 melanoma
HCT-15 colon = system: HCT-15 colon
HT29 colon = system: HT29 colon
SNB-75 CNS = system: SNB-75 CNS
SNB-19 CNS = system: SNB-19 CNS
U251 CNS = system: U251 CNS
PC-3 prostate = system: PC-3 prostate
SK-MEL-5 melanoma = system: SK-MEL-5 melanoma
UACC-62 melanoma = system: UACC-62 melanoma
LOX IMVI melanoma = system: LOX IMVI melanoma
SK-MEL-28 melanoma = system: SK-MEL-28 melanoma

Measured: growth

CCOP(=O)(Cl)OCC
inactive: DU-145 prostate 106% | K-562 leukemia 104% | MALME-3M melanoma 101% | MDA-MB-231 breast 106% | RXF 393 renal 111% | SF-268 CNS 101% | SF-295 CNS 77.4% | SF-539 CNS 96.9% | UACC-257 melanoma 93.5% | M14 melanoma 97.7% | HCT-15 colon 103% | HT29 colon 102% | SNB-75 CNS 86.7% | SNB-19 CNS 103% | U251 CNS 107% | PC-3 prostate 92.3% | SK-MEL-5 melanoma 110% | UACC-62 melanoma 102% | LOX IMVI melanoma 101% | SK-MEL-28 melanoma 105%

O=C(O)CCCCc1ccc(N(CCCl)CCCl)cc1
inactive: DU-145 prostate 91.3% | K-562 leukemia 91.3% | MALME-3M melanoma 112% | MDA-MB-231 breast 102% | RXF 393 renal 95.5% | SF-268 CNS 73.5% | SF-295 CNS 90.8% | SF-539 CNS 85.2% | UACC-257 melanoma 101% | M14 melanoma 87.7% | HCT-15 colon 88.3% | HT29 colon 90.3% | SNB-75 CNS 84.2% | SNB-19 CNS 93.9% | U251 CNS 72.7% | PC-3 prostate 75.3% | SK-MEL-5 melanoma 94% | UACC-62 melanoma 82.6% | LOX IMVI melanoma 75.7% | SK-MEL-28 melanoma 107%

C1CCNCC1.O=C(O)C(O)c1ccc(N(CCCl)CCCl)cc1 (stereo not given)
inactive: DU-145 prostate 103% | K-562 leukemia 88.2% | MALME-3M melanoma 97.4% | MDA-MB-231 breast 104% | RXF 393 renal 96.7% | SF-268 CNS 91.4% | SF-295 CNS 101% | SF-539 CNS 98.4% | UACC-257 melanoma 111% | M14 melanoma 100% | HCT-15 colon 98.7% | HT29 colon 102% | SNB-75 CNS 119% | SNB-19 CNS 95.6% | U251 CNS 100% | PC-3 prostate 86% | SK-MEL-5 melanoma 97% | UACC-62 melanoma 94.4% | LOX IMVI melanoma 95.9% | SK-MEL-28 melanoma 112%

CC(C)NP(=O)(F)NC(C)C
inactive: DU-145 prostate 105% | K-562 leukemia 97.7% | MALME-3M melanoma 92.9% | MDA-MB-231 breast 112% | RXF 393 renal 113% | SF-268 CNS 96.3% | SF-295 CNS 102% | SF-539 CNS 104% | UACC-257 melanoma 98.8% | M14 melanoma 112% | HCT-15 colon 109% | HT29 colon 109% | SNB-75 CNS 101% | SNB-19 CNS 104% | U251 CNS 95.1% | PC-3 prostate 97.2% | SK-MEL-5 melanoma 102% | UACC-62 melanoma 104% | LOX IMVI melanoma 98.5% | SK-MEL-28 melanoma 113%

COc1ccc(N)cc1CN(CCCl)CCCl
inactive: DU-145 prostate 93.5% | K-562 leukemia 74.4% | MALME-3M melanoma 96.5% | MDA-MB-231 breast 95% | RXF 393 renal 88.2% | SF-268 CNS 75.7% | SF-295 CNS 89% | SF-539 CNS 65% | UACC-257 melanoma 81.1% | M14 melanoma 71.9% | HCT-15 colon 81.9% | HT29 colon 66.5% | SNB-75 CNS 73.5% | SNB-19 CNS 87% | U251 CNS 64.1% | PC-3 prostate 57.7% | SK-MEL-5 melanoma 94% | UACC-62 melanoma 53% | LOX IMVI melanoma 51.4% | SK-MEL-28 melanoma 101%

N#CC(C#N)=Cc1ccc2c(c1)OCO2
inactive: DU-145 prostate 107% and 108% | K-562 leukemia 91.3% and 105% | MALME-3M melanoma 91.7% and 103% | MDA-MB-231 breast 116% | RXF 393 renal 96% | SF-268 CNS 100% and 98.6% | SF-295 CNS 108% and 104% | SF-539 CNS 97.5% and 95.3% | UACC-257 melanoma 95.8% and 98.2% | M14 melanoma 98.7% and 95.9% | HCT-15 colon 94.5% and 97.4% | HT29 colon 119% and 109% | SNB-75 CNS 110% and 96.1% | SNB-19 CNS 101% and 97.7% | U251 CNS 100% and 97% | PC-3 prostate 101% and 96.1% | SK-MEL-5 melanoma 91.1% and 97.2% | UACC-62 melanoma 107% and 97.3% | LOX IMVI melanoma 94.9% and 97.5% | SK-MEL-28 melanoma 109% and 102%

COc1cc(CN(CCCl)CCBr)cc(OC)c1
inactive: DU-145 prostate 112% | K-562 leukemia 108% | MALME-3M melanoma 111% | MDA-MB-231 breast 113% | RXF 393 renal 127% | SF-268 CNS 101% | SF-295 CNS 99.4% | SF-539 CNS 96% | UACC-257 melanoma 122% | M14 melanoma 109% | HCT-15 colon 110% | HT29 colon 106% | SNB-75 CNS 78.8% | SNB-19 CNS 117% | U251 CNS 98.9% | PC-3 prostate 91.1% | SK-MEL-5 melanoma 107% | UACC-62 melanoma 108% | LOX IMVI melanoma 98.1% | SK-MEL-28 melanoma 107%

Oc1ccc(N(CCCl)CCCl)cc1
inactive: DU-145 prostate 104% | K-562 leukemia 79.2% | MALME-3M melanoma 109% | MDA-MB-231 breast 115% | RXF 393 renal 92.8% | SF-268 CNS 66.5% | SF-295 CNS 47.7% | SF-539 CNS 74.2% | UACC-257 melanoma 102% | M14 melanoma 87.7% | HCT-15 colon 79% | HT29 colon 76.3% | SNB-75 CNS 99.4% | SNB-19 CNS 97.2% | U251 CNS 78.6% | PC-3 prostate 73.2% | SK-MEL-5 melanoma 94.3% | UACC-62 melanoma 81% | LOX IMVI melanoma 69.5% | SK-MEL-28 melanoma 111%

COc1cccc(N(CCCl)CCCl)c1OC
inactive: DU-145 prostate 96.8% | K-562 leukemia 83.8% | MALME-3M melanoma 104% | MDA-MB-231 breast 89.4% | RXF 393 renal 93.5% | SF-268 CNS 69% | SF-295 CNS 70.4% | SF-539 CNS 55.5% | UACC-257 melanoma 97.9% | M14 melanoma 83.1% | HCT-15 colon 75.8% | HT29 colon 72.4% | SNB-75 CNS 79.8% | SNB-19 CNS 91.7% | U251 CNS 67.6% | PC-3 prostate 69.2% | SK-MEL-5 melanoma 84% | UACC-62 melanoma 65.4% | LOX IMVI melanoma 81.6% | SK-MEL-28 melanoma 102%

COc1ccc(C(=O)O)cc1N(CCCl)CCCl
inactive: DU-145 prostate 112% | K-562 leukemia 94.2% | MALME-3M melanoma 92.8% | MDA-MB-231 breast 118% | RXF 393 renal 108% | SF-268 CNS 88.6% | SF-295 CNS 87.6% | SF-539 CNS 93.5% | UACC-257 melanoma 108% | M14 melanoma 98.8% | HCT-15 colon 106% | HT29 colon 101% | SNB-75 CNS 83.5% | SNB-19 CNS 104% | U251 CNS 96% | PC-3 prostate 97.8% | SK-MEL-5 melanoma 97.6% | UACC-62 melanoma 113% | LOX IMVI melanoma 81.1% | SK-MEL-28 melanoma 113%

Oc1ccc(Br)cc1CN(CCCl)CCCl
inactive: DU-145 prostate 38.8% | K-562 leukemia 61.1% | MALME-3M melanoma 95.8% | MDA-MB-231 breast 104% | RXF 393 renal 88.4% | SF-268 CNS 49.4% | SF-295 CNS 35.2% | SF-539 CNS 43.8% | UACC-257 melanoma 97.1% | M14 melanoma 51.9% | HCT-15 colon 67.5% | HT29 colon 63.3% | SNB-75 CNS 64% | SNB-19 CNS 58.8% | U251 CNS 53.1% | PC-3 prostate 77.7% | SK-MEL-5 melanoma 73% | UACC-62 melanoma 36.3% | LOX IMVI melanoma 41.7% | SK-MEL-28 melanoma 94%

NC(=O)C1(Nc2ccccc2)CCNCC1
inactive: DU-145 prostate 116% | K-562 leukemia 107% | MALME-3M melanoma 106% | MDA-MB-231 breast 104% | RXF 393 renal 110% | SF-268 CNS 98.9% | SF-295 CNS 102% | SF-539 CNS 95.4% | UACC-257 melanoma 103% | M14 melanoma 96.5% | HCT-15 colon 103% | HT29 colon 96.5% | SNB-75 CNS 106% | SNB-19 CNS 107% | U251 CNS 101% | PC-3 prostate 98.5% | SK-MEL-5 melanoma 93.6% | UACC-62 melanoma 98.1% | LOX IMVI melanoma 101% | SK-MEL-28 melanoma 115%

Cc1ccc(NC2(C#N)CCN(Cc3ccccc3)CC2)cc1
inactive: DU-145 prostate 107% | K-562 leukemia 101% | MALME-3M melanoma 91.2% | MDA-MB-231 breast 101% | RXF 393 renal 91.1% | SF-268 CNS 110% | SF-295 CNS 105% | SF-539 CNS 93.7% | UACC-257 melanoma 83.3% | M14 melanoma 90% | HCT-15 colon 84.2% | HT29 colon 97.2% | SNB-75 CNS 81.3% | SNB-19 CNS 105% | U251 CNS 96.7% | PC-3 prostate 93.3% | SK-MEL-5 melanoma 104% | UACC-62 melanoma 86.7% | LOX IMVI melanoma 88.9% | SK-MEL-28 melanoma 117%

CCNC(=O)Cc1ccc(N(CCCl)CCCl)cc1
inactive: DU-145 prostate 86.4% | K-562 leukemia 84.3% | MALME-3M melanoma 86.2% | MDA-MB-231 breast 101% | RXF 393 renal 77.1% | SF-268 CNS 69.9% | SF-295 CNS 38.8% | SF-539 CNS 62.2% | UACC-257 melanoma 90.5% | M14 melanoma 107% | HCT-15 colon 77.8% | HT29 colon 82.4% | SNB-75 CNS 92.4% | SNB-19 CNS 88.2% | U251 CNS 70% | PC-3 prostate 80.9% | SK-MEL-5 melanoma 85.7% | UACC-62 melanoma 76.5% | LOX IMVI melanoma 58.1% | SK-MEL-28 melanoma 101%

O=c1[nH]cc(CN(CCCl)CCCl)c(=O)[nH]1
inactive: DU-145 prostate 107% | K-562 leukemia 107% | MALME-3M melanoma 99.7% | MDA-MB-231 breast 98.8% | RXF 393 renal 113% | SF-268 CNS 103% | SF-295 CNS 100% | SF-539 CNS 104% | UACC-257 melanoma 100% | M14 melanoma 100% | HCT-15 colon 103% | HT29 colon 100% | SNB-75 CNS 93.1% | SNB-19 CNS 98.3% | U251 CNS 101% | PC-3 prostate 92.7% | SK-MEL-5 melanoma 101% | UACC-62 melanoma 94.5% | LOX IMVI melanoma 99.2% | SK-MEL-28 melanoma 102%

C[N+](C)(CCCl)CCCl
inactive: DU-145 prostate 106% | K-562 leukemia 110% | MALME-3M melanoma 117% | MDA-MB-231 breast 104% | RXF 393 renal 115% | SF-268 CNS 104% | SF-295 CNS 150% | SF-539 CNS 97.2% | UACC-257 melanoma 92% | M14 melanoma 108% | HCT-15 colon 106% | HT29 colon 103% | SNB-75 CNS 76.7% | SNB-19 CNS 104% | U251 CNS 98.8% | PC-3 prostate 93% | SK-MEL-5 melanoma 106% | UACC-62 melanoma 104% | LOX IMVI melanoma 72.1% | SK-MEL-28 melanoma 106%
